Measured values published in ChEMBL document CHEMBL1127536, “2-Azetidinones as inhibitors of cholesterol absorption” (J Med Chem, 1994).

By UniProt entry, the sequences of proteins in these tests, tags left out. Where a name states a change or a piece, a line headed by the entry shows the natural chain unless it says otherwise.
UniProt O70536: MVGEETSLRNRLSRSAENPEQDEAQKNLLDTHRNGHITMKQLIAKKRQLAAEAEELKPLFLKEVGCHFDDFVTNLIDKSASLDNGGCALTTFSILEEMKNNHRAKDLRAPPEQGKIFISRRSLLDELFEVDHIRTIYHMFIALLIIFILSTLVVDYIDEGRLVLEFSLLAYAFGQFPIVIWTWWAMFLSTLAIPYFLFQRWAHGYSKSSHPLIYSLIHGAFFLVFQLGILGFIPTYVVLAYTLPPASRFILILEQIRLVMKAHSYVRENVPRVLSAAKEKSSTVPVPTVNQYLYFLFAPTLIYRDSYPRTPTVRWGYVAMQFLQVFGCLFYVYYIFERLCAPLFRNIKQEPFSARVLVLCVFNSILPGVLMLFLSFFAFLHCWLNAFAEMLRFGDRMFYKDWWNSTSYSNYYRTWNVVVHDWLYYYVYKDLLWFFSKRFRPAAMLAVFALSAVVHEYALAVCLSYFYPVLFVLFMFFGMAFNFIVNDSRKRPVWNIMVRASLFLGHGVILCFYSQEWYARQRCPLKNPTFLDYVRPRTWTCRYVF

Target: Sterol O-acyltransferase 1 (Rattus norvegicus, UniProt O70536)

`CC[C@@]1(CCCc2ccccc2)C(=O)N(c2c(OC)cc(OC)cc2OC)[C@@H]1c1ccccc1` was tested. Which IC50 did it give?
The IC50 was 1.7 µM.

`CC[C@]1(CCCc2ccccc2)C(=O)N(c2c(OC)cc(OC)cc2OC)[C@@H]1c1ccccc1` was tested. Which IC50 did it give?
The IC50 was 12 µM.

For `COc1ccc(N2C(=O)[C@@](C(=O)Cc3ccccc3)(c3ccccc3)[C@H]2c2ccccc2)cc1`, which IC50 is on record?
Its IC50 is 7.5 µM.
